Data on one molecule can be found in ChEMBL document CHEMBL3639108, “5,6,7,8,9,10-hexahydro-6,10-epimino[1,2,4]triazolo[4,3-a]azocines as P2X7 modulators” (2015).

By UniProt entry, the sequences of proteins in these tests, tags left out. Where a name states a change or a piece, a line headed by the entry shows the natural chain unless it says otherwise.
UniProt Q99572: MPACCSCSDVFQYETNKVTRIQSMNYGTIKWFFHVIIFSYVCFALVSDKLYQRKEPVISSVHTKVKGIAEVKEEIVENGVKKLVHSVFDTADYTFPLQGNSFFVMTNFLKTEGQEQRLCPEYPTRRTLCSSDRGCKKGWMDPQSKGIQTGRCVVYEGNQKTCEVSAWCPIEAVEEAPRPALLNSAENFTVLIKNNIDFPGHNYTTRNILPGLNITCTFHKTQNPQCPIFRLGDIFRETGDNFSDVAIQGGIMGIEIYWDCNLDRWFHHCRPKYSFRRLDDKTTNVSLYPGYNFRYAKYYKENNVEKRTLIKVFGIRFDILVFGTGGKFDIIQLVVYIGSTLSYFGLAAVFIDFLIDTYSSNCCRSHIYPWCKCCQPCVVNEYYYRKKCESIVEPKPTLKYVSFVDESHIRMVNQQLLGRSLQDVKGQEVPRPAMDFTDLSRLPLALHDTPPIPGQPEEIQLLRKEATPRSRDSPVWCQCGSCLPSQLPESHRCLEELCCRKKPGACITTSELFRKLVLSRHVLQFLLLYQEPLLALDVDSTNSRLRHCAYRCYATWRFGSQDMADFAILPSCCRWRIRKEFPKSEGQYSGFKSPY

Assay [1] has as its target T1, P2X purinoceptor 7 (Homo sapiens, UniProt Q99572). Put plainly: FLIPR Assay: Ca^2+flux: 1321N1 cells expressing the recombinant human, rat or mouse P2X7 channel was cultured in HyQ DME/(HyClone/Dulbecco's Modified Eagle Medium) high glucose supplemented with 10% Fetal Bovine Serum (FBS) and appropriate selection marker. Cells were seeded at a density of 25000 cells/well (96-well clear bottom black walled plates) in 100 µl volume/well. On the day of the experiment, cell plates were washed with assay buffer, containing (in mM): 130 NaCl, 2 KCl, 1 CaCl2, 1 MgCl2, 10 HEPES, 5 glucose; pH 7.40 and 300 mOs. After the wash, cells were loaded with the Calcium-4 dye (Molecular Device) and incubated in the dark for 60 minutes. Test compounds were prepared at 250× the test concentration in neat DMSO. Intermediate 96-well compound plates were prepared by transferring 1.2 µL of the compound into 300 µL of assay buffer. A further 3× dilution occurred when transferring 50 µL/well of the compound plate to 100 µL/well in the cell plate. It is filed as cell-based.

For assay [2], the target named is T1, P2X purinoceptor 7. Put plainly: Radioligand Binding: Human or rat P2X7-1321N1 cells were collected and frozen @-80° C. On the day of the experiment, cell membrane preparations were made according to standard published methods. The total assay volume was 100 µl:10 µl compound (10×)+(b) 40 µl tracer (2.5×)+50 µl membrane (2×). The tracer used for the assay was tritiated A-804598. The compound can be prepared as described in the literature. […] C. The assay was terminated by filtration (GF/B filters pre-soaked with 0.3% PEI) and washed with washing buffer (Tris-HCl 50 mM). It is filed as cell-based.

`COc1ccc(-c2nnc3n2C[C@@H]2CCC[C@H]3N2C(=O)c2cccc(C(F)(F)F)c2Cl)nc1`: the IC50 on P2X purinoceptor 7 [1] amounted to 10 nM. For the same molecule, the affinity on P2X purinoceptor 7 [2] corresponds to a Ki of 30.4 nM.

A word on the IC50: it is the concentration at which inhibition is half-maximal. Broadly, the Ki is a measure of affinity in units of concentration, obtained from inhibition or displacement. Low values mean higher affinity, high ones lower affinity.
